Values joined by “and” are separate entries in the source; they are usually repeats but may differ in a detail not shown here. Equal values may be shown once.

The chains behind the UniProt entries cited, without tags or fusion partners.
UniProt P34972, whole entry: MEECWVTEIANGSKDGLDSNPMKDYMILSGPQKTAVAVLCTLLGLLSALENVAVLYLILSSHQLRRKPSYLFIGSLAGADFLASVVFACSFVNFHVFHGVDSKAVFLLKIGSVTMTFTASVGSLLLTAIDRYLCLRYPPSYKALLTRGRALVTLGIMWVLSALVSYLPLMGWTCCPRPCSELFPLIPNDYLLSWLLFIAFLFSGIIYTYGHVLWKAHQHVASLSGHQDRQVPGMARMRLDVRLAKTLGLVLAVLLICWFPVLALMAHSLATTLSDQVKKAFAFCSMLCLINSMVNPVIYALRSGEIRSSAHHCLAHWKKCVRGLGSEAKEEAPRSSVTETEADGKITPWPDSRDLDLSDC
UniProt Q8NER1, whole entry: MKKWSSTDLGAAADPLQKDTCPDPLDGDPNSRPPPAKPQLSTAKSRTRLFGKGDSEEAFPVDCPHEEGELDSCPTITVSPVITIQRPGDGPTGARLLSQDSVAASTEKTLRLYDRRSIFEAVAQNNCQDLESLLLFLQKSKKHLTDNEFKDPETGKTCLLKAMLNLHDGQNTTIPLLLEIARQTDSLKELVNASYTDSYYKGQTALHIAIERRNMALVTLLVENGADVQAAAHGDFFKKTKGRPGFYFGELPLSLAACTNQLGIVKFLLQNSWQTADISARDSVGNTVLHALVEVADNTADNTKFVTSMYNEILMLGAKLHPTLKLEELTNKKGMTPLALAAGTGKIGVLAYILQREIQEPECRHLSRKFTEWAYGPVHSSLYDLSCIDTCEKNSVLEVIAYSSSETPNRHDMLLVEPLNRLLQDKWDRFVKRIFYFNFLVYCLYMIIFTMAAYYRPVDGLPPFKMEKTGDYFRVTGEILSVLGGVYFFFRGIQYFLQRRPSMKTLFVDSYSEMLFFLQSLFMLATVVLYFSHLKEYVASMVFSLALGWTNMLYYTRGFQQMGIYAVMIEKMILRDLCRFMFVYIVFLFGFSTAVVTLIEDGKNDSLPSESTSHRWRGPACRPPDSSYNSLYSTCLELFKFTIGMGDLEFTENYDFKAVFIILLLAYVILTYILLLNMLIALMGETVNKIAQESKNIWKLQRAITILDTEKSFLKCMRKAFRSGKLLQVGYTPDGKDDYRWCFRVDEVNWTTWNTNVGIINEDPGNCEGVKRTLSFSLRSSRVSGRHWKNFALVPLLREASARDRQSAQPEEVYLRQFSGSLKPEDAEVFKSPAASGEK
UniProt Q9ERZ8, whole entry: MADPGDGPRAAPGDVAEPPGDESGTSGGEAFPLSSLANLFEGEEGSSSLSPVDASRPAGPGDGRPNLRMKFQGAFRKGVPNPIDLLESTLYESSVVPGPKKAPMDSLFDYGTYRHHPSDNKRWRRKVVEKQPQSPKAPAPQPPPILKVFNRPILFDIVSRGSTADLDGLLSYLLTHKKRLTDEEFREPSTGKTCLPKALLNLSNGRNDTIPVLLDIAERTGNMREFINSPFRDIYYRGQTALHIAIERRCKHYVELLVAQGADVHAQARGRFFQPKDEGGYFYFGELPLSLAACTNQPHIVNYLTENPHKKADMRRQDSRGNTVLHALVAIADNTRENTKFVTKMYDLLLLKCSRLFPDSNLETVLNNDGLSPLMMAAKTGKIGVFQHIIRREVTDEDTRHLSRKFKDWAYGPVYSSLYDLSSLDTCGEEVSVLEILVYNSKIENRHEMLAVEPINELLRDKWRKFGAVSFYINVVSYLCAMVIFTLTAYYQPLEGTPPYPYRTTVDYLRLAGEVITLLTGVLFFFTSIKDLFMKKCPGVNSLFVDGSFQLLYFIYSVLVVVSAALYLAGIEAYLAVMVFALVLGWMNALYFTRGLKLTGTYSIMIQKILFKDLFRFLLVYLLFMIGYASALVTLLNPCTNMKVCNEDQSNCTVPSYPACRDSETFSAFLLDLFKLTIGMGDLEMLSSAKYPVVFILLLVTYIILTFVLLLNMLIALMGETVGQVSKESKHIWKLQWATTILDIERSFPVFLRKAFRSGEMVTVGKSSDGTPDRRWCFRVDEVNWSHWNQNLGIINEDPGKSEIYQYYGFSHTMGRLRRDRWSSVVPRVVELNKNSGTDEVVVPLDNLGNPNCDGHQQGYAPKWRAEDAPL
UniProt Q6RI86, whole entry: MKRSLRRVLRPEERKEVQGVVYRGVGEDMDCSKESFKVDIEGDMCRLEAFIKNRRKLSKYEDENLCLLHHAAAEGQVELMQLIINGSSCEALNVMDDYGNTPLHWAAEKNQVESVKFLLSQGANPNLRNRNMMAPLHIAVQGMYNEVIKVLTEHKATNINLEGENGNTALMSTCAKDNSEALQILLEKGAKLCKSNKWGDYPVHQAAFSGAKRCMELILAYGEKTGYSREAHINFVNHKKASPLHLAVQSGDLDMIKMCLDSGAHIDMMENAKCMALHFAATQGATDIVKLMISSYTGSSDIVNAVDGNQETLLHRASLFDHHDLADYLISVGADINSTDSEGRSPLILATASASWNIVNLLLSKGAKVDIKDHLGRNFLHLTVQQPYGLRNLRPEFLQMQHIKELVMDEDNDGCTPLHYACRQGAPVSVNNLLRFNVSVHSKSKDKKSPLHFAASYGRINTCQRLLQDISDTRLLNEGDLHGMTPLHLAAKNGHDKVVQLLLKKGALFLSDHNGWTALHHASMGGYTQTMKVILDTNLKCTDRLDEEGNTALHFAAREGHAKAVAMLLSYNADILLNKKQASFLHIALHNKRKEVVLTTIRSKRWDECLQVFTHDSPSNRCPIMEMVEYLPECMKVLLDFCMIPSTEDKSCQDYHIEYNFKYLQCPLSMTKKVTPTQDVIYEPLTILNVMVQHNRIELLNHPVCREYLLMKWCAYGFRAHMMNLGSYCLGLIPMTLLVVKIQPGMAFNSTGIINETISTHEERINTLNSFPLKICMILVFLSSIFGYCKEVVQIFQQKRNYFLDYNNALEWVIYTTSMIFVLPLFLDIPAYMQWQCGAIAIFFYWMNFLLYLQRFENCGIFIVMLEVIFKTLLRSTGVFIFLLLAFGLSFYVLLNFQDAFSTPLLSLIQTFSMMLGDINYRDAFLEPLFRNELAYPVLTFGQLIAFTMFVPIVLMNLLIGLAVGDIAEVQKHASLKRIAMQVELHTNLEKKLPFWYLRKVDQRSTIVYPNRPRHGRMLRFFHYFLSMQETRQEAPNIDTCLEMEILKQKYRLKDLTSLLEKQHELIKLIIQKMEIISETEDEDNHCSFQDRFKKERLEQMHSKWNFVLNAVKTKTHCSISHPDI
UniProt P47746, whole entry: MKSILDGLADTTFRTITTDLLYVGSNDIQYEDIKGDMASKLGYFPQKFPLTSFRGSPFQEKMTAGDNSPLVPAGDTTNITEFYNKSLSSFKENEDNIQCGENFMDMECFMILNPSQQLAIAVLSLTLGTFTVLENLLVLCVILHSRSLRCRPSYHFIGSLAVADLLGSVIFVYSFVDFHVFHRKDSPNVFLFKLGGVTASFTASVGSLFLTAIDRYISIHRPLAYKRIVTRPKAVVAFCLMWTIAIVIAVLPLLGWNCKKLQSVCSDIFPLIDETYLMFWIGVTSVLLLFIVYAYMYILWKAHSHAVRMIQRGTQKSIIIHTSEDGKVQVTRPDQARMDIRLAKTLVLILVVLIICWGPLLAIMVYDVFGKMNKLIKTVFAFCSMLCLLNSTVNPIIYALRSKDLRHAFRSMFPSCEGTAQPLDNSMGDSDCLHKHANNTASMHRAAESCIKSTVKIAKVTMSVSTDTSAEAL

Experiment [1] addresses T1, hCB2R (Homo sapiens, UniProt P34972). Put plainly: biochemical. It counts as binding. The following applies: for Ki: pKi ± SEM hCB2R, CHO membranes, Leiden, HU210 and SR144528 from Roche.
For experiment [2], the target named is T1, hCB2R. Put plainly: biochemical.
Experiment [3] addresses T1, hCB2R. Description: cell-based.
Experiment [4] concerns the target T1, hCB2R. Put plainly: cell-based. This is another data set of the same source.
Experiment [5] has as its target T1, hCB2R. Put plainly: cell-based. To be noted: for EC50: pEC50 ± SEM pERK hCB2R.
Experiment [6] deals with T1, hCB2R. Put plainly: cell-based. This is another data set of the same source.
For another experiment, the target named is Human recombinant TRPV1 (Homo sapiens, UniProt Q8NER1). It counts as cell-based.
The target in the next experiment is T2, Rat recombinant TRPV3 (Rattus norvegicus, UniProt Q4QYD9).
T2 sequence (Q4QYD9 1-791): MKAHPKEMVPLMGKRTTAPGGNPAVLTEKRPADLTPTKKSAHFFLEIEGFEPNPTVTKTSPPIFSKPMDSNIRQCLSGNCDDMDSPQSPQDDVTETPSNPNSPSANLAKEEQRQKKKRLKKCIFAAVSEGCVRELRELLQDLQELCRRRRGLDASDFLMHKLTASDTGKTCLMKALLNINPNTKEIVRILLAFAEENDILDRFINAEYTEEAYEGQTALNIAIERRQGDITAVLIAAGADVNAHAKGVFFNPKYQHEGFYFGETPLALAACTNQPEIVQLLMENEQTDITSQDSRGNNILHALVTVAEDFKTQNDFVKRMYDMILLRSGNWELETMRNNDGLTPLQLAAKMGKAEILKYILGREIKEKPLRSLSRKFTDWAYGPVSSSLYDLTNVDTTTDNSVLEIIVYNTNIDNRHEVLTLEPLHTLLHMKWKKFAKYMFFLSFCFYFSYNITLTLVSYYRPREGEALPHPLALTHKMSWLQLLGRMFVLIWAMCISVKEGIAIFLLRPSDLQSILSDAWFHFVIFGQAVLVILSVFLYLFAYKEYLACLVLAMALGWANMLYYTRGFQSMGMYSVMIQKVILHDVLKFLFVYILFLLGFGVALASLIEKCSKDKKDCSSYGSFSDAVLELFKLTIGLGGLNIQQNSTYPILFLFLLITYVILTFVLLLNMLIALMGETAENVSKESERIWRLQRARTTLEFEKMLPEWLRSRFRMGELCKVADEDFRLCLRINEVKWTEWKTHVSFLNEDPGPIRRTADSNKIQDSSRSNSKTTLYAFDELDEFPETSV
It counts as cell-based.

For another experiment, the target named is Rat recombinant TRPV4 (Rattus norvegicus, UniProt Q9ERZ8). Type of experiment: cell-based. To be noted: read-out: TRPV4 IC50 for desensitization.
The target of a further experiment is Rat recombinant TRPA1 (Rattus norvegicus, UniProt Q6RI86).
For experiment [7], the target named is T3, mCB1R (Mus musculus, UniProt P47746). Put plainly: biochemical. Type of experiment: binding.
Experiment [8] has as its target T3, mCB1R. Put plainly: biochemical.
Experiment [9] concerns AEA reuptake in HaCaT cells. Description: cells. Type of experiment: cell-based. The following applies: Homo sapiens, read-out: AEA reuptake IC50 (95% CI) HaCaT cells.

Consider `Cc1c(C(=O)NN2CCCCC2)nn(-c2ccc(Cl)cc2Cl)c1-c1ccc(I)cc1` [AM251], for which, on hCB2R [1], the “pKi ± SEM hCB2R” value stood at 6.92 ± 0.24. Also, the “pEC50 ± SEM GTPγS hCB2R” value on hCB2R [2] worked out at 6.14 ± 0.11. Also, on hCB2R [3], the “pEC50 ± SEM cAMP hCB2R” value is listed as 6.75 ± 0.03. The “pEC50 ± SEM β-AR recruitment hCB2R” value on hCB2R [4] is given as 5.75 ± 0.34. Also, the “pEC50 ± SEM pERK hCB2R” value at hCB2R [5] is given as 4.72 ± 0.06. In addition, the “pEC50 ± SEM GIRK hCB2R” value on hCB2R [6] is recorded as 5.11 ± 0.12. In addition, on Human recombinant TRPV1, the “TRPV1 Efficacy (% ionomycin 4μM)” value is less than 10%. Moreover, the IC50 at Rat recombinant TRPV3 (read-out: TRPV3 IC50 for antagonism or desensitization) was more than 50000 nM; on Rat recombinant TRPV4, 1200 ± 100 nM; at Rat recombinant TRPA1 (read-out: TRPA1 IC50 for antagonism or desensitization), 17100 nM. The EC50 on Rat recombinant TRPV3 (read-out: TRPV3 Potency EC50) worked out at 600 nM; on Rat recombinant TRPA1 (read-out: TRPA1 Potency EC50), 860 nM.
Take `CCCCC/C=C\C/C=C\C/C=C\C/C=C\CCCC(=O)NCCO` [Anandamide, N-arachidonoylethanolamine]: the inhibition constant (Ki) on hCB2R [1] was ~100 nM and 123 nM; at mCB1R [7], 74.1 nM. In addition, the concentration for a half-maximal effect (EC50) at hCB2R [2] is 427 nM; on hCB2R [3], 1170 nM; at mCB1R [8] (pEC50 ± SEM cAMP mCB1R), > 6310 nM and 7240 nM; on hCB2R [4] it was 617 nM; on hCB2R [5], 3890 nM and > 3160 nM; at hCB2R [6], 5130 nM.
For `CCCCCCC(C)(C)c1cc(OC)c([C@@H]2C=C(CO)[C@@H]3C[C@H]2C3(C)C)c(OC)c1` [HU308], at hCB2R [1], the inhibition constant (Ki) was 36.3 nM. Besides, the figures for the concentration for a half-maximal effect (EC50) on hCB2R [2] and at hCB2R [5] (antagonists in presence of EC80 of CP55940) were 51.3 nM and 138 nM, respectively.
Turning to `Cc1c(C(=O)NN2CCCCC2)nn(-c2ccc(Cl)cc2Cl)c1-c1ccc(Cl)cc1` [SR141716A], the Emax at mCB1R [8] (read-out: Emax cAMP mCB1R) is -100%. Further, in experiment [9], the IC50 amounted to 2900 nM.

As a reminder, the IC50 is the concentration needed to halve the response being measured. In general, EC50 refers to the concentration needed to bring the measured effect to its halfway point. The term Ki denotes a dissociation constant, usually derived from enzyme kinetics or from competition with a known ligand. Low values mean higher affinity, high ones lower affinity. Broadly, the Emax is the maximal effect, on the per cent scale that the assay sets.
